# Bioassay records (PubChem BioAssay)
# Rango dissoc inh: inhibition of RanGTP-driven Rango-importin beta dissociation | O95149+P62826 | Biochemical FRET Rango-importin beta, RanGTP-induced dissociation | Potency, µM (top dose mostly 46.1 µM) | 340,000 tested, 0.071% active; calls by dose curve; note: nearly all actives have a fitted effect of over 45% in size
#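 FRET read at 45 min, room temperature: inhibitors block the CFP/YFP signal rise when RanGTP (0.6 uM Ran, 2 mM GTP, 0.2 uM RCC1) frees Rango (0.1 uM) from importin beta (0.25 uM). Pre-read after 5 min compound exposure flags interference.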
# Vif-A3F inh: inhibitors of Vif-A3F interaction | Potency, µM (highest dose often 46.1 µM) | HeLa A3F-eYFP + Vif (tagged APOBEC3F with the HIV-1 protein that degrades it), YFP fluorescence increase | 390,000 tested, 0.2% active | AID 602313; note: nearly all actives have a fitted effect of over 65% in size
#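 Fluorescence increase (Ex 488/Em 500-530) after overnight compound treatment at 37 deg C flags inhibition of Vif-driven A3F-eYFP loss in stable HeLa A3F-eYFP/Vif cells seeded overnight beforehand.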
# Rango-impB inh: Rango-importin beta binding inhibition; Q14974; Rango CFP/YFP FRET sensor + importin beta, 45 min; Potency, µM (doses to about 92.2 µM); 340,000 tested, 0.031% active; AID 540263; calls by dose curve; note: nearly all actives have a fitted effect of over 15% in size
#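 Inhibition scored from the CFP 486 nm/YFP 530 nm FRET ratio 45 min after adding 0.125 microM importin beta to 50 nM Rango biosensor preincubated 5 min with compound (room temperature, PBS with DTT, Tween-20, BSA). No-importin wells as positive control.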
# Epigenetic reg: derepresses silenced GFP reporter in murine cells; AID 1865; Potency, µM (doses to about 53.9 µM), most hits filed as activators; 280,000 tested, 0.2% active; murine LDR cells, GFP reporter derepression, 30 h; note: nearly all actives have a fitted effect of over 60% in size
#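 In this reporter-derepression format, murine cells bearing a silenced integrated CMV-GFP locus incubate with test compound (30 h, 37 C), then are washed and imaged; fluorescent objects of 20–120 um count as induced cells.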
# Vif-APOBEC3G blk: Vif-A3G binding inhibition; 410,000 tested, 0.076% active; Potency, µM (top dose mostly 46.1 µM), usual class: inhibitors; HeLa A3G-eYFP + Vif (tagged APOBEC3G with the HIV-1 protein that degrades it), YFP fluorescence, overnight; AID 602310; Q9HC16; note: nearly all actives have a fitted effect of over 60% in size
#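 Read-out is eYFP fluorescence (Ex 488/Em 500-530) from Vif-expressing HeLa A3G-eYFP cells; more signal means A3G escaped Vif-mediated degradation. Cells plated overnight, compound pinned in, incubated overnight at 37 deg C.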
# Numbers stand for hits; 0 = inactive; ? = inconclusive; - = not tested or not shown. This is a sample that favours compounds with a hit; in the whole collection about 0.42% have one here. Unless noted, calls come from the whole dose curve; as a rule, active = well fitted curve in the direction sought with a large enough effect; inconclusive = small, poorly fitted or top-dose-only effect, or another doubt; inactive = no such curve, though single readings can be large; an effect the other way counts as inactive or inconclusive.
SMILES,Rango dissoc inh,Vif-A3F inh,Rango-impB inh,Epigenetic reg,Vif-APOBEC3G blk
CCOC1=C/C(=C/c2c(N)n3oc(C)cc3nc2=O)C=CC1=O,-,-,-,0,-
COC1=C/C(=C/c2c(N)n3c(nc2=O)sc2cc(S(C)(=O)=O)ccc23)C=CC1=O,?,?,?,0,?
NS(=O)(=O)c1ccc(NC(=O)c2nc(S(=O)(=O)Cc3ccccc3F)ncc2Cl)cc1,-,-,-,-,0
COc1cccc(-n2cc(C(=O)Nc3cccc(C(F)(F)F)c3)c3ccccc3c2=O)c1,-,0,-,0,0
COc1cc(N)c(N)cc1OC,-,-,-,-,0
CCN(CC)c1ccc2cc(C(N)=O)c(=O)oc2c1,?,0,0,?,0
N/C(=N\NC(=O)c1cccs1)c1cc2ccccc2oc1=O,0,0,?,0,0
CCN(CC)c1ccc2cc(C(N)=O)c(=N)oc2c1,?,11µM,?,0,?
CCN(CC)c1ccc2cc(/C(N)=N/NC(=O)c3cccs3)c(=O)oc2c1,-,-,-,6.3µM,-
C(=C\c1ccnc2ccccc12)/c1ccc2ccccc2n1,-,-,-,-,0
COc1ccc(-c2nc(SCC(=O)NCCCc3ccccc3)n[nH]2)cc1,-,0,-,0,0
C=C(Br)COC(c1ccco1)[C@H](Cc1ccccc1)NC(=O)OC(C)(C)C (stereo not given in full),-,-,-,-,0
C=CCNC(=S)N/N=C(\C)c1ccc(OC)cc1,0,10µM,0,?,0
CN1/C(=C\C(=O)Nc2ccc(Cl)cc2)C(C)(C)c2ccccc21,0,?,0,0,0
CN1/C(=C\C=C(/C#N)C(=O)Nc2ccc(Cl)cc2)C(C)(C)c2ccccc21,?,?,?,22µM,7.1µM
CN1/C(=C\C=C(C#N)C#N)C(C)(C)c2ccccc21,?,11µM,?,25µM,0
Cc1ccc2c(CN3CCN(C(=O)c4ccc(Br)cc4)CC3)cc(=O)oc2c1,-,0,-,0,0
C1=C/C(=C2/C=Cc3ccccc32)c2ccccc2N1,-,-,-,-,0
CCC(C)Sc1cccc(-c2nc3cc(C)ccn3c2NC2CCCCC2)c1 (stereo not given),0,22µM,?,-,0
Oc1c(C(Nc2ccccn2)c2ccccc2F)ccc2cccnc12 (stereo not given),-,?,-,0,0
Oc1c(C(Nc2ccccn2)c2ccccn2)ccc2cccnc12 (stereo not given),0,0,0,3.5µM,0
Cc1ccc(/C=C/C(=O)c2ccccc(=O)c2O)cc1C,8.2µM,?,?,?,0
COc1cc2nc(CCc3nc4cc(OC)c(OC)cc4[nH]3)[nH]c2cc1OC,-,-,-,-,0
O=C1NC(=Nc2ccc(O)cc2)S/C1=C/c1ccco1,0,0,0,0,11µM
Cc1ccc(N=C2NC(=O)/C(=C\c3ccco3)S2)cc1,0,0,0,0,0
SMILES,Rango dissoc inh,Vif-A3F inh,Rango-impB inh,Epigenetic reg,Vif-APOBEC3G blk
Cc1cc(/C=C2\SC(=S)N(Cc3ccco3)C2=O)c(C)n1-c1cccnc1,?,11µM,?,22µM,5.6µM
Cc1ccc(NC(=O)CN2C(=O)C(c3ccc(C)cc3)=NC23CCCCCC3)cc1,-,-,-,0,-
O=c1[nH]c2ccccc2nc1/C=C(\O)c1cccs1,?,10µM,?,22µM,?
N#C/C(N=Nc1ccccc1O)=N\Nc1ccccc1O,0,11µM,0,-,?
NC(=O)CC(NC(=O)Cc1ccc(Br)cc1)c1ccc(NC2CCN(Cc3ccccc3)CC2)c([N+](=O)[O-])c1 (stereo not given),0,0,52µM,-,0
Cc1ccc(NC(=O)c2ccc(NCCc3ccccc3)c([N+](=O)[O-])c2)cc1F,0,0,0,13µM,0
O=C(Nc1cc(F)cc(F)c1)c1ccc(NCCc2ccccc2)c([N+](=O)[O-])c1,0,?,0,0,0
Cc1nnc(NC(=O)c2sc3nc(-c4cccs4)cc(C(F)(F)F)c3c2N)s1,?,7.1µM,?,0,?
Nc1c(C(=O)Nc2nccs2)sc2nc(-c3cccs3)cc(C(F)(F)F)c12,?,?,?,?,8.9µM
Cc1cc(C)c2c(N)c(C(=O)Nc3nccs3)sc2n1,?,0,?,0,0
CC(C)(C)C(=O)c1sc2nc(-c3cccs3)cc(C(F)(F)F)c2c1N,?,2.8µM,?,11µM,?
COc1cccc(C(=O)Nc2nc(-c3nnn(-c4cccc(Cl)c4C)c3C)ns2)c1,-,0,-,0,0
CCOC(=O)CC(=O)CSc1nc2ccc(C)cc2cc1C#N,?,0,?,0,0
Cc1ccc2nc(SCC(=O)Nc3ccc4sc(C)nc4c3)c(C#N)cc2c1,0,11µM,0,5.6µM,0
COC(=O)CSc1nc2cc(C)ccc2cc1C#N,0,-,?,16µM,0
COc1ccc(NC(=O)CSc2ccccc2)cc1S(=O)(=O)N1CCCCC1,0,0,23µM,0,0
Cc1cc(Nc2ccc(C)c(Cl)c2)n2nc(-c3ccccc3)nc2n1,-,?,-,11µM,?
Cn1c(=O)c(NC2CCCCC2)c2c3c(cccc31)C(=O)c1ccccc1-2,?,0,?,0.13µM,?
CC(=O)Nc1ccc(Nc2c3c4c(cccc4n(C)c2=O)C(=O)c2ccccc2-3)cc1,0,8.9µM,0,0,0
CCCN(C(=O)COc1cc(=O)n(CC)c2ccccc12)c1ccc(C(C)C)cc1,-,0,-,0,0
CCCN(CCC)S(=O)(=O)c1ccc(C(=O)OCCN2C(=O)c3cccc4c(N5CCOCC5)ccc(c34)C2=O)cc1,?,0,?,25µM,0
CCN(CC)S(=O)(=O)c1ccc(C(=O)N2CCN(CCN3C(=O)c4cccc5cccc(c45)C3=O)CC2)cc1,-,-,-,0,-
CN(C)c1ccc(/C=C/c2ncnc3ccccc23)cc1,-,-,-,-,0
Cc1ccc(S(=O)(=O)C(CNS(=O)(=O)c2ccc(F)c(C(F)(F)F)c2)c2ccco2)cc1 (stereo not given),-,0,-,0,0
c1ccc2c(c1)nc(N1CCOCC1)c1nnnn12,?,3.2µM,?,0,0
SMILES,Rango dissoc inh,Vif-A3F inh,Rango-impB inh,Epigenetic reg,Vif-APOBEC3G blk
c1ccc(N2CCN(c3nc4ccccc4n4nnnc34)CC2)cc1,?,?,?,0,0
Cc1cc(C)n(-c2nc(NC(C)C)nc(NC(C)(C)C)n2)n1,-,-,-,-,0
O=C(N=c1ccn(-c2nc3ccccc3nc2NS(=O)(=O)c2ccccc2)cc1)c1ccccc1Cl,?,7.1µM,?,-,0
O=C(N=c1ccn(-c2nc3ccccc3nc2NS(=O)(=O)c2ccc(Cl)cc2)cc1)c1ccccc1Cl,-,-,-,0,-
CCOc1ccc(S(=O)(=O)Nc2nc3ccccc3nc2-n2ccc(=NC(=O)c3cccs3)cc2)cc1,0,0,?,0,0
O=C(N=c1ccn(-c2nc3ccccc3nc2NS(=O)(=O)c2ccc(Cl)cc2)cc1)c1cccs1,?,7.9µM,?,?,0
COc1cc(NC(=O)CSc2cc(=O)n(C)c3ccccc23)cc(OC)c1OC,-,0,-,0,0
COc1cc(/C=C/C(=O)c2ccc([N+](=O)[O-])o2)ccc1O,0,?,0,-,?
COc1ccc(/C=C/C(=O)c2ccc([N+](=O)[O-])o2)cc1OC,0,?,?,-,7.9µM
